Measurements published in PubChem BioAssay (NCI).
The entries are a selection whose mix differs from that of the whole data set.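 Values shown are percent growth following 48 h exposure of cells in 96-well plates to a single concentration of compound; below 10 was considered active.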 Active and inactive are the calls of the source.

Legend:
Test in all cases: NCI-60 one-dose screen, 48 h (100 = growth as untreated, 0 = no growth, -100 = all killed)
Conditions in all cases: 10 µM unless noted
[1] = tested on: SK-MEL-2 melanoma
[2] = tested on: EKVX NSCLC
[3] = tested on: SN12C renal
[4] = tested on: UO-31 renal
[5] = tested on: TK-10 renal
[6] = tested on: ACHN renal
[7] = tested on: HL-60(TB) leukemia
[8] = tested on: CCRF-CEM leukemia
[9] = tested on: MOLT-4 leukemia
[10] = tested on: SR leukemia
[11] = tested on: RPMI-8226 leukemia
[12] = tested on: OVCAR-8 ovarian
[13] = tested on: OVCAR-5 ovarian
[14] = tested on: OVCAR-4 ovarian
[15] = tested on: SK-OV-3 ovarian
[16] = tested on: IGROV1 ovarian
[17] = tested on: OVCAR-3 ovarian
[18] = tested on: A498 renal
[19] = tested on: HS 578T breast
[20] = tested on: CAKI-1 renal

Measured: growth

NCCNCCCl
inactive: [1] 109% | [2] 105% | [3] 97.2% | [4] 94.1% | [5] 110% | [6] 96.6% | [7] 67.6% | [8] 89.9% | [9] 102% | [10] 79.1% | [11] 93.1% | [12] 94.5% | [13] 105% | [14] 93% | [15] 106% | [16] 108% | [17] 107%

CN(CCCl)/N=N/c1nc2nc[nH]c(=O)c2[nH]1
inactive: [1] 102% | [2] 98.4% | [3] 110% | [4] 91% | [5] 95.6% | [6] 99.5% | [18] 100% | [7] 86.3% | [8] 101% | [9] 93.2% | [10] 99.1% | [11] 104% | [12] 101% | [13] 111% | [14] 98.4% | [15] 94.9% | [16] 107% | [17] 110% | [19] 98%

O=C(c1ccccc1)C(NCCCl)c1ccccc1 (centres undefined)
inactive: [1] 92.5% | [2] 104% | [3] 101% | [4] 82.9% | [5] 85.4% | [18] 104% | [7] 111% | [8] 112% | [9] 111% | [10] 97.6% | [11] 101% | [12] 96.9% | [13] 99.8% | [14] 110% | [15] 114% | [16] 85% | [17] 102% | [19] 99.1%

ClCCN1CCn2cnc3ncnc-3c21
inactive: [1] 98.2% | [2] 108% | [3] 102% | [4] 89.8% | [5] 102% | [6] 104% | [18] 110% | [7] 105% | [8] 111% | [9] 99.9% | [10] 86.8% | [11] 113% | [12] 108% | [13] 108% | [14] 103% | [15] 105% | [16] 114% | [17] 109% | [19] 102%

S=P(Cl)(N1CCCCCC1)N1CC1 (centres undefined)
inactive: [1] 104% | [2] 96.3% | [3] 101% | [4] 82.5% | [5] 97.7% | [6] 105% | [20] 88.7% | [7] 105% | [8] 105% | [9] 103% | [10] 102% | [11] 93.3% | [12] 102% | [13] 108% | [14] 103% | [15] 130% | [16] 96% | [17] 119% | [19] 105%

CCN(CCCl)C1c2ccccc2-c2ccccc21
inactive: [1] 92.3% | [2] 102% | [3] 92.5% | [4] 84% | [5] 85.3% | [6] 101% | [18] 108% | [7] 93% | [8] 102% | [9] 93.8% | [10] 91.3% | [11] 85.4% | [12] 99.3% | [13] 98.7% | [14] 90.1% | [15] 98.8% | [16] 97.5% | [17] 102% | [19] 99.5%

ClCCNC(Cc1ccccc1)c1ccccc1 (centres undefined)
inactive: [1] 97.3% | [2] 93.9% | [4] 92.1% | [5] 97.4% | [6] 100% | [20] 92.5% | [18] 53.7% | [7] 101% | [8] 114% | [9] 90.5% | [10] 89.8% | [11] 104% | [12] 96.6% | [13] 96.9% | [14] 100% | [15] 96.7% | [16] 99.9% | [17] 97.6% | [19] 98.2%

O=[As]1(O)c2ccccc2-c2ccccc21
inactive: [1] 126% | [2] 104% | [3] 96.1% | [4] 99.2% | [5] 112% | [6] 110% | [20] 91.4% | [7] 89.6% | [8] 72% | [9] 83.9% | [11] 99% | [12] 99.5% | [13] 93.5% | [14] 97.3% | [15] 114% | [16] 110% | [17] 109%

CCN(CCI)Cc1cccc2ccccc12
inactive: [1] 93.4% | [2] 106% | [3] 94.6% | [4] 88.7% | [5] 95% | [6] 105% | [18] 105% | [7] 93.3% | [8] 96.7% | [9] 103% | [10] 99.3% | [11] 98.3% | [12] 99.8% | [13] 102% | [14] 108% | [15] 103% | [16] 101% | [17] 107% | [19] 99.8%

CN(CCCl)/N=N/c1nc2c([nH]1)c(=O)n(C)c(=O)n2C
inactive: [1] 88.2% | [2] 100% | [3] 103% | [4] 94.7% | [5] 80% | [6] 108% | [18] 104% | [7] 74.1% | [8] 104% | [9] 91.7% | [10] 94.4% | [11] 108% | [12] 102% | [13] 103% | [14] 106% | [15] 85.5% | [16] 107% | [17] 107% | [19] 95.4%

ClCCNCc1cccc(Cl)c1
inactive: [1] 125% | [3] 104% | [4] 91.8% | [5] 123% | [6] 102% | [20] 98.5% | [18] 94.2% | [7] 93.1% | [8] 87.4% | [9] 84.8% | [10] 90.5% | [11] 102% | [12] 99.4% | [13] 107% | [14] 97.7% | [15] 97.7% | [16] 110% | [17] 114%

CCCC1OP(=O)(Nc2ccccc2)OCC1CC (centres undefined)
inactive: [1] 101% | [2] 104% | [3] 99.5% | [5] 95.5% | [6] 98.3% | [20] 90.5% | [18] 87.9% | [7] 107% | [8] 101% | [9] 98.7% | [11] 104% | [12] 98.5% | [13] 101% | [14] 107% | [15] 106% | [17] 106% | [19] 101%

O=P1(N(CCCl)CCCl)Nc2ccccc2N1
inactive: [1] 115% | [2] 104% | [3] 106% | [4] 98.3% | [5] 120% | [20] 106% | [18] 98.2% | [7] 109% | [8] 99.1% | [9] 98.7% | [10] 110% | [11] 110% | [12] 119% | [13] 121% | [14] 108% | [15] 111% | [16] 111% | [17] 122% | [19] 130%

CCN(CCCl)/N=N/c1nc2nc[nH]c(=O)c2[nH]1
inactive: [1] 103% | [2] 109% | [3] 107% | [4] 86.4% | [5] 94.2% | [6] 115% | [18] 106% | [7] 99.4% | [8] 115% | [9] 103% | [10] 84.4% | [11] 108% | [12] 105% | [13] 105% | [14] 105% | [15] 97.1% | [16] 104% | [17] 112% | [19] 120%

CC(Cc1ccccc1)N(CCCl)Cc1ccccc1 (centres undefined)
inactive: [1] 101% | [2] 98% | [4] 94.6% | [5] 90% | [6] 104% | [20] 94.4% | [18] 95.6% | [7] 99.1% | [8] 107% | [9] 98.9% | [10] 87.4% | [11] 92.3% | [12] 95.4% | [13] 95% | [14] 109% | [15] 105% | [16] 101% | [17] 98.7% | [19] 102%

CCOP(=O)(CCCBr)OCC
inactive: [1] 107% | [3] 98.9% | [4] 89.8% | [5] 106% | [6] 103% | [20] 112% | [18] 100% | [7] 103% | [8] 95.5% | [9] 101% | [10] 108% | [11] 102% | [12] 101% | [13] 105% | [14] 102% | [15] 104% | [16] 113% | [17] 113% | [19] 101%

Cc1cc([N+](=O)[O-])cc([N+](=O)[O-])c1O
inactive: [1] 112% | [3] 96.5% | [4] 93.3% | [5] 104% | [6] 109% | [20] 101% | [18] 82.3% | [7] 98.1% | [8] 98.5% | [9] 93.5% | [10] 103% | [11] 103% | [12] 106% | [13] 96.8% | [14] 107% | [15] 99.9% | [16] 116% | [17] 107% | [19] 108%

CCOP(=S)(OCC)SCCCl
inactive: [1] 85.6% | [3] 93.6% | [4] 98.4% | [5] 109% | [6] 107% | [20] 99.1% | [18] 106% | [7] 104% | [8] 94% | [9] 106% | [10] 112% | [11] 102% | [12] 100% | [13] 107% | [14] 109% | [15] 92.2% | [16] 102% | [17] 113% | [19] 113%
